Sampled rows, rich in hits. Any-hit rate of the full collection: about 2.3%.
A549 viability: A549 cytotoxicity, counter-screen for Nrf2 inhibitors; 390,000 tested, 0.16% active; AID 504648; Potency, µM (highest dose often 46 µM), for the others: at the highest dose activity change, negative = cytotoxicity, actives largely listed as inhibitors; A549 ARE-Fluc cells, CellTiter-Fluor viability, 18-24 h; also: potency is read from the fitted curve at half-maximal effect; % is scaled to controls: 0 for no effect and ±100 for the full control effect
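A549 ARE-Fluc cells in 5% FBS OPTI-MEM, 5000 cells/well, rested 2 h then exposed to compounds in concentration-response for 18-24 h at 37 °C. Viability by CellTiter-Fluor fluorescence (Ex 405/Em 525) after 30 min; luciferase luminescence (BugLite, 15 min, RT) read afterwards.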
Mito fusion act: inhibitors of mitochondrial division or activators of mitochondrial fusion. S. cerevisiae fusion-defective mutant growth rescue, CellTiterGlo 48 h. Potency, µM (top dose mostly 46.1 µM), inactives show at the top dose growth rescue (activation), hits mostly activators. 320,000 tested, 0.23% active; also: potency is read from the fitted curve at half-maximal effect; % of control where 0% means no effect; nearly all actives have a fitted effect of over 45% in size
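Growth-rescue viability read-out: after 48 h at the non-permissive 37C in glycerol/ethanol YPEG, yeast mitochondrial fusion mutants are measured by CellTiterGlo luminescence; compounds (23 nl pinned per well) restoring growth score as division inhibitors or fusion activators.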
miR-21 reporter: miR-21 reporter, rising signal; HeLa miR-21 FLuc reporter, luciferase, 48 h; Potency, µM (doses to about 38.3 µM), for inactives: at the highest dose reporter change, positive = more light; 340,000 tested, under 10 active; AID 2288; active = well fitted rising curve with a large enough effect; inconclusive = small, poorly fitted or top-dose-only effect; inactive = no such curve, though single readings can be large or run the other way;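 further: % of control where 0% means no effect; miR-21 action dims this reporter so a rising signal means less miR-21 action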
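HeLa cells endogenously expressing miR-21, stably carrying CMV-driven firefly luciferase with a downstream miR-21 binding site, 2000 cells/well. Titrations up to approximately 40 uM, 48 hours; luciferase luminescence read.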
Nrf2 activator: activators of Nrf2 (ARE) signaling; AREc32 ARE-luciferase reporter (MCF7-derived line), luminescence, 24 h; 410,000 tested, 0.31% active; Potency, µM (doses to about 46.1 µM), inactives show top-dose activation, hits mostly activators; AID 624171; also: potency is read from the fitted curve at half-maximal effect; % of control where 0% means no effect; nearly all actives have a fitted effect of over 65% in size
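AREc32 cells carrying an ARE-driven firefly luciferase reporter were seeded at 1000 cells/well in OPTI-MEM with 5% FBS, then exposed to compound for 24 hr at 37 deg C. Luminescence was read with Steady-Glo after 30 min at RT.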
Nrf2 block: inhibitors of Nrf2 signaling. A549 ARE-Fluc reporter, luciferase luminescence, 18-24 h. Potency, µM (doses to about 46 µM), for inactives: at the top dose activity change, negative = inhibition, usual class: inhibitors. 360,000 tested, 2.1% active. AID 504444; also: potency is read from the fitted curve at half-maximal effect; % is scaled to controls: 0 for no effect and ±100 for the full control effect; nearly all actives have a fitted effect of over 60% in size
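Two sequential reads on A549 ARE_Fluc cells exposed to compound for 18-24 h: a CellTiter-Fluor fluorescence read for viability, then a luciferase luminescence read for Nrf2/ARE activity.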
Glioma ERSR ind: inducers of ER stress response in human glioma cells. U87-MG GRP78 promoter luciferase reporter, 16 h. 420,000 tested, 0.02% active. Potency, µM, for inactives: at the top dose activation, hits mostly activators; also: potency is read from the fitted curve at half-maximal effect; series mostly up to about 76 µM; % of control where 0% means no effect; nearly all actives have a fitted effect of over 35% in size
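Stably transfected U87-MG human glioma cells carrying a GRP78-based luminescent sensor were seeded at 1000 cells/well, pin-dosed with compounds and incubated 16 h. Luciferase reagent was then added, and end-point luminescence was read after 10 min at room temperature.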
* = called active by the depositor; ? = inconclusive; / = no result given. Unless noted, calls follow the shape of the dose curve; as a rule, active = well fitted curve in the direction sought with a large enough effect; inconclusive = small, poorly fitted or top-dose-only effect, or another doubt; inactive = no such curve, though single readings can be large; an effect the other way counts as inactive or inconclusive.

| # | compound | A549 viability | Mito fusion act | miR-21 reporter | Nrf2 activator | Nrf2 block | Glioma ERSR ind |
| --- | --- | --- | --- | --- | --- | --- | --- |
| 1 | COc1ccc(C(=O)NCc2ccccc2)cc1S(=O)(=O)N1CCCc2ccccc21 | 2% | 3% | -1% | 0% | -8% | -1% |
| 2 | Cc1cc(OCC(=O)Nc2cccc(-c3nc4ccccc4o3)c2C)cc(C)c1Cl | / | / | / | / | / | -3% |
| 3 | Cn1c(COc2ccc(Cl)cc2)nnc1SCc1ncc(-c2ccccc2)o1 | -30% | 3% | 15% | 2% | 16µM* | -7% |
| 4 | COc1ccc(-n2cnnc2SCc2ncc(-c3ccccc3)o2)cc1 | 2% | 0% | -10% | 1% | ? | -4% |
| 5 | COC(=O)c1cc(COc2ccc3ccc(=O)oc3c2)c(C)o1 | 6% | 2% | -2% | 5% | 15% | 0% |
| 6 | CC1(C)C=Cc2cc(-c3coc4cc(O)cc(O)c4c3=O)cc(O)c2O1 | 5% | / | / | 7% | 2% | 3% |
| 7 | Cc1cc(NC(=O)CC2CCCC2)n(-c2nc3ccccc3[nH]2)n1 | ? | 13% | 10% | 0% | 26µM* | -6% |
| 8 | Cc1ccc(C2=NN(S(=O)(=O)c3ccccc3)C(c3ccccc3O)C2)cc1 (configuration not stated) | -13% | 7% | 8% | 3% | -1% | 2% |
| 9 | OCCNc1nc(Nc2ccccc2)nc2ccccc12 | -2% | 6% | 0% | -1% | -23% | 32µM* |
| 10 | Cc1c(Cl)cccc1Nc1nc(NCCO)c2ccccc2n1 | -7% | -22% | -2% | 0% | 2% | 32µM* |
| 11 | c1ccc(Nc2nc(NCC3CCCO3)c3ccccc3n2)cc1 (configuration not stated) | -25% | -1% | ? | 0% | 18µM* | 6% |
| 12 | Oc1ccccc1Nc1nc(NCc2ccccc2)c2ccccc2n1 | -12% | -11% | ? | 2% | -11% | -12% |
| 13 | OCCNc1nc(Nc2ccc(Br)cc2)nc2ccccc12 | 5% | -1% | 3% | 5% | ? | ? |
| 14 | N#C/C(C(=O)N1CCCCC1)=C1/N=C(NC(=O)c2ccc(F)cc2)c2ccccc21 | -6% | -3% | -8% | -1% | 12% | -5% |
| 15 | O=[N+]([O-])c1ccc(-c2nnc(-c3ccccc3)c(N3CCOCC3)n2)cc1 | ? | -1% | -12% | 1% | 17% | 1% |

Among those listed so far, these contain an aryl thioether with sulfur outside any ring:
| # | compound | A549 viability | Mito fusion act | miR-21 reporter | Nrf2 activator | Nrf2 block | Glioma ERSR ind |
| --- | --- | --- | --- | --- | --- | --- | --- |
| 3 | Cn1c(COc2ccc(Cl)cc2)nnc1SCc1ncc(-c2ccccc2)o1 | -30% | 3% | 15% | 2% | 16µM* | -7% |
| 4 | COc1ccc(-n2cnnc2SCc2ncc(-c3ccccc3)o2)cc1 | 2% | 0% | -10% | 1% | ? | -4% |

Limited to Glioma ERSR ind and Mito fusion act, for 5 of the compounds above:
# | canonical_smiles | Glioma ERSR ind | Mito fusion act
8 | Cc1ccc(C2=NN(S(=O)(=O)c3ccccc3)C(c3ccccc3O)C2)cc1 (configuration not stated) | 2% | 7%
10 | Cc1c(Cl)cccc1Nc1nc(NCCO)c2ccccc2n1 | 32µM* | -22%
14 | N#C/C(C(=O)N1CCCCC1)=C1/N=C(NC(=O)c2ccc(F)cc2)c2ccccc21 | -5% | -3%
1 | COc1ccc(C(=O)NCc2ccccc2)cc1S(=O)(=O)N1CCCc2ccccc21 | -1% | 3%
7 | Cc1cc(NC(=O)CC2CCCC2)n(-c2nc3ccccc3[nH]2)n1 | -6% | 13%

Following part
| # | compound | A549 viability | Mito fusion act | miR-21 reporter | Nrf2 activator | Nrf2 block | Glioma ERSR ind |
| --- | --- | --- | --- | --- | --- | --- | --- |
| 16 | CCCOc1ccc2c(=O)c(-c3cc(C(=O)OC)oc3C)c(C)oc2c1 | -6% | 3% | 4% | 0% | 16µM* | -4% |
| 17 | Cc1ccc(S(=O)(=O)[N-]c2nc3ccccc3nc2-[n+]2cc(C)cc(C)c2)cc1 | -23% | -1% | 3% | -1% | -16% | -1% |
| 18 | Cc1nc2ncnn2c(N2CCCC(C(=O)Nc3ccccc3Br)C2)c1C (configuration not stated) | 9% | ? | 12% | 3% | ? | 1% |
| 19 | Cc1nc(-c2ccc(S(=O)(=O)N3CCN(CCc4ccccc4)CC3)s2)cs1 | -7% | -2% | 5% | 0% | 23µM* | -5% |
| 20 | O=S(=O)(c1ccc(F)cc1)N1CCN(CCc2ccccc2)CC1 | -1% | -4% | 4% | 0% | ? | -9% |
| 21 | Cc1ccc(NC(=O)COC(=O)c2ccc(NC(=O)CC#N)cc2)cc1S(=O)(=O)N1CCOCC1 | 3% | / | / | -1% | 12% | -3% |
| 22 | NC1=C(Br)C(=O)c2ncccc2C1=O | 16µM* | / | / | -2% | 10µM* | -14% |
| 23 | C#CCOCCOCCOCCNc1nc(N2CCN(C(=O)[C@H]([C@@H](C)CC)n3cc([C@@H](N)CO)nn3)CC2)nc(N2CCN(C(=O)[C@H]([C@@H](C)CC)n3cc([C@@H](N)CC(C)C)nn3)CC2)n1 | ? | -1% | -2% | 0% | 13% | 0% |
| 24 | O=C(O)C1C2C=CC(C2)C1C(=O)N1CCc2ccccc21 (configuration not stated) | 0% | 8% | 1% | -1% | -6% | -4% |
| 25 | c1ccc(N=NC2=NN(c3ccccc3)CS2)cc1 | / | / | / | 8.9µM* | / | 2% |
| 26 | c1ccc(C2=NN(c3ccccc3)CC2)cc1 | 8% | -2% | -79% | 16% | ? | 6% |
| 27 | COc1ccc(S(=O)(=O)N2CCC(C(N)=O)(N3CCCCC3)CC2)cc1 | -10% | 1% | 0% | -1% | -4% | -1% |
| 28 | NC(=O)C1(N2CCCCC2)CCN(S(=O)(=O)c2cc(Cl)sc2Cl)CC1 | 1% | 28µM* | 1% | 0% | 16% | -2% |
| 29 | COc1ccc(CNC(=O)Cn2c(=O)nc(-c3ccccc3F)c3cc(Cl)ccc32)cc1OC | 16µM* | / | ? | 0% | / | -4% |
| 30 | O=C(NC(=S)Nc1cccc(O)c1)C12CC3CC(CC(C3)C1)C2 | / | / | / | 0% | / | 6% |

| # | compound | A549 viability | Mito fusion act | miR-21 reporter | Nrf2 activator | Nrf2 block | Glioma ERSR ind |
| --- | --- | --- | --- | --- | --- | --- | --- |
| 31 | COc1cc2nc(CN3CCN(S(=O)(=O)c4ccccc4)CC3)[nH]c(=O)c2cc1OC | 0% | -3% | / | 0% | -26% | -1% |
| 32 | COc1cc2nc(CN3CCN(S(=O)(=O)c4ccc(Cl)cc4)CC3)[nH]c(=O)c2cc1OC | -9% | -1% | 23% | 1% | 23µM* | -2% |
| 33 | Cc1ccc(-c2nnc(NC3CCCCC3)c3ccccc23)cc1S(=O)(=O)N1CCN(C)CC1 | ? | -2% | 0% | 0% | 23µM* | -4% |
| 34 | CCCc1cc(-c2n[nH]c(C(=O)OCC)c2-c2cscn2)c(O)cc1O | -12% | 0% | 18% | -1% | 29µM* | -7% |
| 35 | COc1ccc(NC(=O)C2CCC(CNS(=O)(=O)c3cccs3)CC2)cc1OC (configuration not stated) | 1% | 1% | -2% | 1% | -8% | -1% |
| 36 | Cn1nnnc1Sc1ncnc2scc(-c3cccc(C#N)c3)c12 | ? | / | / | / | 16µM* | / |
| 37 | Cn1nnnc1Sc1ncnc2scc(-c3ccc(F)cc3)c12 | ? | 0.79µM* | ? | ? | 23µM* | -16% |
| 38 | Cn1nnnc1Sc1ncnc2scc(-c3cccc4ccccc34)c12 | -21% | / | / | 7.1µM* | ? | -1% |
| 39 | Cc1ccccc1-c1csc2ncnc(Sc3nnnn3C)c12 | 1% | / | / | / | -10% | / |
| 40 | Cn1nnnc1Sc1ncnc2scc(-c3ccccc3Br)c12 | -3% | 8% | / | ? | 21µM* | -9% |
| 41 | Cc1ccc(-c2csc3ncnc(Sc4nnnn4C)c23)cc1 | 0% | / | / | / | -5% | / |
| 42 | COc1ccc(S(=O)(=O)Nc2ccc(C)c(S(=O)(=O)N3CCOCC3)c2)cc1[N+](=O)[O-] | 13% | 0% | / | 0% | 20% | -5% |
| 43 | CC(=O)N(Cc1ccc(Cl)cc1)c1cnccn1 | 0% | -3% | -3% | -1% | -20% | -5% |
| 44 | COCCCNC(=O)CN(Cc1ccccc1)S(=O)(=O)c1ccccc1 | 13% | -3% | 1% | 4% | 5% | -2% |
| 45 | CCOCCc1nnc(NC(=O)CCc2ccccc2)s1 | 6% | -9% | 0% | 0% | -26% | -2% |
| 46 | C(=NN1CCCCCC1)c1cccc2ccccc12 | 9% | / | / | 3% | ? | -3% |

From PubChem BioAssay
